In patent publication US9340577B2, “HLA binding motifs and peptides and their uses” (priority 1992, dated 2016):

Tests used:
HLA-A1 (A*0101) = HLA-A1 (A*0101) (Homo sapiens, UniProt P04439, A114D/A174V/A182V/D101N/D185E/E176A/E190D/L180R/Q94H/R68K/S129P/T187R/V100A/V91M/W191G); settings: read-out: Binding affinity A*0101
A*3002 = A*3002 (Homo sapiens, UniProt P04439, D101N/D140H/D185E/E176R/F33S/G80R/H175R/K168Q/Q94H/R138E/R41S/V100E); test: biochemical; format: binding; settings: read-out: Binding affinity A*3002
A*2902 = A*2902 (Homo sapiens, UniProt P04439, A270S/D101N/D185E/E176V/E277Q/E87Q/F33T/G231S/H175R/I121M/I218V/I322F/K168Q/L300P/L318F/M331R/P208A/P217A/Q86L/T323A/T345S/V100A/V358M); test: biochemical; format: binding

Structure (SMILES) | IC50 (HLA-A1 (A*0101)) [nM] | IC50 (A*3002) [nM] | IC50 (A*2902) [nM]
CC(C)C[C@H](NC(=O)[C@H](CC(=O)O)NC(=O)[C@H](CCCCN)NC(=O)[C@H](Cc1ccccc1)NC(=O)[C@H](C)N)C(=O)N[C@@H](Cc1ccccc1)C(=O)N[C@H](C(=O)N[C@H](C(=O)N[C@@H](Cc1ccc(O)cc1)C(=O)O)C(C)C)C(C)C | > 20000 | 37 | 
CC[C@H](C)[C@H](NC(=O)[C@H](CC(C)C)NC(=O)[C@H](CCC(N)=O)NC(=O)[C@H](CC(=O)O)NC(=O)[C@H](C)NC(=O)[C@@H](NC(=O)CN)[C@@H](C)O)C(=O)N[C@@H](Cc1c[nH]cn1)C(=O)N[C@@H](CC(C)C)C(=O)N[C@@H](Cc1ccc(O)cc1)C(=O)O [Peptide 9018.0023] |  |  | 198
